Molecular target: PRMT1 (Homo sapiens, UniProt Q99873)
Test: Stopped flow fluorescence assay of PRMT1 inhibition ([PRMT1] 0.2 µM, [SAM] 3.5 µM, [H4FL] 0.4 µM);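 further: Stopped-flow traces of fluorescent H4FL peptide quenched on binding PRMT1 and restored on release, recorded 900 s, averaged over repeated drives and fit to a double-exponential model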
Type: biochemical
Conditions: [SAH] 0.5 µM

Chains of the proteins cited; added tags and fusions are not shown. Residues count along the entry.
UniProt Q99873, 29-371: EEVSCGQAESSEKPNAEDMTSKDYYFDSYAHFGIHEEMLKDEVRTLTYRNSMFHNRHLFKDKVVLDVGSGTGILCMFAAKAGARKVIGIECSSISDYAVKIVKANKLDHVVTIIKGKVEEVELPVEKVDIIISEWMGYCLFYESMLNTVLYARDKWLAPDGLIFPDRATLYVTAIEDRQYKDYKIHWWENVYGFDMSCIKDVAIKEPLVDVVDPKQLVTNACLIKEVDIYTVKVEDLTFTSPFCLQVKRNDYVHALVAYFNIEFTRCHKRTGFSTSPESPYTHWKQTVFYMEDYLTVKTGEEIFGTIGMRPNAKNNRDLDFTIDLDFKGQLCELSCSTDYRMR

a·k1 (slope of Phase I): 0.0168 ± 4.24e-05 s⁻¹
SMILES: Nc1ncnc2c1ncn2[C@@H]1O[C@H](CSCC[C@H](N)C(=O)O)[C@@H](O)[C@H]1O [SAH, S-adenosyl homocysteine]
